## Ab-14 light chain CDR variants: yeast mating affinities

Reference: Li et al. 2023, doi:10.1038/s41467-023-39022-2. File: FLAb, binding data.

All variants were tested on one target, the spike HR2 peptide PDVDLGDISGINAS (SARS-CoV-2).

Parent: Ab-14, a human scFv built as VH, a 15-residue (Gly4Ser)3 linker, VL. Only the CDRs of the light chain vary.
VH: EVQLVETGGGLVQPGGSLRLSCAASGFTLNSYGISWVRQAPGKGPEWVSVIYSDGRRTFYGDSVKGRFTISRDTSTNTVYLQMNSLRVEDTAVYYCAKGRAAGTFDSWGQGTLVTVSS
VL: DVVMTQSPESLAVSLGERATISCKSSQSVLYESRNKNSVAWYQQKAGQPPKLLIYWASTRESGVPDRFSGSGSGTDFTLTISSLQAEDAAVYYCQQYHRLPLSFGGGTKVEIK

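The parent was found by panning a naive human phage display library on the peptide. Designed CDR sequences, proposed from the first random library and measured here. Several design methods are mixed in this list. The scFvs were displayed on barcoded MATa yeast, the peptide on MATalpha yeast. After mating in shaken culture at 30 °C for 16 h, diploids were selected and their barcode pairs sequenced. Each replicate has its own calibration line, from reference interactions of the BCL2 family. Each pool was mated in six replicate cultures.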

The parent's light chain CDRs are KSSQSVLYESRNKNSVA, WASTRES, QQYHRLPLS; each variant's own CDRs replace them letter for letter. This list holds designs with at most six substitutions. Values are apparent Kd, the geometric mean of the replicates that gave a signal; lower means stronger binding. "nd" marks a missing value. The strain was present, yet no cells mated with the target were sequenced in any replicate, which points to weak or no binding. The authors averaged sequences with at least three values out of six and counted those with two or fewer as poor binders. Background: pairings of all light chain designs with three empty control strains gave a value in 4% of cases (median 430 nM, 5th percentile 38 nM). Values in that range, when seen in few replicates, are hard to tell from nonspecific mating. The control count says in how many pairings with the empty strains this scFv gave a signal. A sequence measured in both rounds can read differently, since the two assays cover different ranges. The parent sequence was in this pool as ten entries: three were never detected, three once, and four in most replicates, with averages from 2.2 nM to 240 nM.

The variant KSSQSTLYESRNKNSVA / WAYTRES / QQYHRLPLS showed 460 nM (2 of 6 replicates; controls 2 of 18). With KSSQSALYESRNKNSVA / EASTRES / QQYHRLPLS the result was 1.4 nM (6 of 6 replicates; controls 2 of 18). The variant KQSQSVLYESRNKNSVG / DASTRWS / QQYHRLPLS gave 57 nM (6 of 6 replicates; controls 1 of 18). With KSKQSVLYESRNKQWVA / WASTRES / QQYHRLPLS the result was nd (0 of 6 replicates; controls 0 of 18). The variant KLSQSDLYEQRNKNSVA / EASTRES / QQYHRLPLS gave 1.0 nM (6 of 6 replicates; controls 0 of 18). For KSSQSFLYESRWKNSVA / DASQRES / QQYHRLPLS, the assay gave 1.3 nM (6 of 6 replicates; controls 1 of 18).

For KLSQSWLYESRNKNSVA / EASTREQ / QQYHRLPLS, the assay gave 380 pM (6 of 6 replicates; controls 0 of 18). The variant KSEQSQLYESRNKNSVA / NASTRED / QQYHRLPLS showed 440 pM (6 of 6 replicates; controls 0 of 18). The variant KESQSEPYESRNKNSVA / NASQRMS / QQYHRLPLS showed 1.1 nM (6 of 6 replicates; controls 2 of 18). The variant KLEQSDLYESRNKNSVA / GASTRES / QQYHRLPLS gave 400 pM (6 of 6 replicates; controls 1 of 18). With KSSQSVLYESRNKNSVA / WASTRES / QEYHRLPLS the result was nd (0 of 6 replicates; controls 0 of 18). The variant KLSQSMLYESRNKNSVA / NASTRES / QSYHRLPLS gave 1.2 nM (6 of 6 replicates; controls 2 of 18).

The variant KSSQSVLYESRNKNSVA / WASTRSS / QQYHRLPLS gave 33 nM (6 of 6 replicates; controls 0 of 18). The variant KSSTSVLMESRNKNSVA / WASTRES / QQYHRLPLS gave 68 nM (3 of 6 replicates; controls 0 of 18). The variant MMSQSVLYEWRNKNSVA / AASKRES / QQYHRLPLS gave 3.3 nM (6 of 6 replicates; controls 1 of 18). With KLSQSWLYESRNKNSVA / NASTREM / QQYHRLPLS the result was 5.7 nM (6 of 6 replicates; controls 0 of 18). The variant KVSQSWLYESRNKNNVA / NASTRES / QQYHRLPLS showed 730 pM (6 of 6 replicates; controls 0 of 18). For SLMQSVLYESRNKNSVA / HASLREQ / QQYHRLPLS, the assay gave 1.2 nM (6 of 6 replicates; controls 0 of 18).

The variant KLPQSYLYESRNKNAVA / NASTRES / QQYHRLPLS showed 400 pM (6 of 6 replicates; controls 1 of 18). The variant KLEQSTLYESRNKNSVA / NASTRSS / QQYHRLPLS showed 1.0 nM (6 of 6 replicates; controls 0 of 18). The variant KLEQSWLYESRNKNAVA / NASQRES / QQYHRLPLS showed 540 pM (6 of 6 replicates; controls 0 of 18). The variant KLYQSHLYESRNKNSVA / NASTRES / QQYHRLPLS gave 1.2 nM (6 of 6 replicates; controls 2 of 18). The variant KLVQSVLYESRNKNSVA / NASTRMS / QQYHRLPLS gave 2.1 nM (6 of 6 replicates; controls 1 of 18). The variant QSSQSVGYEVNNKNSVA / WASTRES / QQYVRLPLS showed 53 nM (1 of 6 replicates; controls 0 of 18).

The variant KSSQSVLYESRNKNSVA / WADTRES / QQYHRLPLS showed 17 nM (6 of 6 replicates; controls 2 of 18). The variant KQSQSVLYESLNKNSVA / DASTRES / QQYHRLPLS gave 1.6 nM (6 of 6 replicates; controls 0 of 18). The variant KAMQSWLYESRNKNSVA / GASTRES / QQYHRLPLI gave 1.7 nM (6 of 6 replicates; controls 0 of 18). The variant KLSQSNLYESRNKNSVA / EASTREQ / QQYHRLPLS gave 660 pM (6 of 6 replicates; controls 0 of 18). The variant KLSQSELYESRNKNSVA / NASTRES / QQYHRLPLI gave 2.4 nM (6 of 6 replicates; controls 1 of 18). The variant KIIQSVLYESMNKNSVA / WASTRES / QQYVRLPLS showed 140 nM (5 of 6 replicates; controls 1 of 18).

The variant KSSPSVLYESNPKNSVA / QASQRES / QQYHRLPLS showed 920 pM (6 of 6 replicates; controls 2 of 18). For KMPQSHLYESRNKNSVA / NASQRES / QQYHRLPLS, the assay gave 5.4 nM (6 of 6 replicates; controls 0 of 18). With KSMQSTLYESRYKNSVA / WASTRES / QQYHRLPLP the result was nd (0 of 6 replicates; controls 1 of 18). With KFSQSVAYESRQKNSVA / NASTRES / QQYHRLPLS the result was 1.3 nM (6 of 6 replicates; controls 1 of 18). For KLPQSMEYESRNKQSVA / AASTRES / QQYHRLPLS, the assay gave 880 pM (6 of 6 replicates; controls 4 of 18). The variant KMSISMLGESRNKNSVA / EASTRES / QQYHRLPLS showed 500 pM (6 of 6 replicates; controls 0 of 18).

The variant KLQQSWLYESRNKNSVA / NASQRES / QQYHRLPLS gave 490 pM (6 of 6 replicates; controls 2 of 18). With KSSISYLYESRAKNSVA / EASTRES / QQYHRLPLS the result was 910 pM (6 of 6 replicates; controls 1 of 18). The variant KLSFSMLYESRNKNSVA / EASTRES / QQYHRLPLS showed 830 pM (6 of 6 replicates; controls 2 of 18). For KWSQSHLYESRNWNAVA / EASTRPS / QQYHRLPLS, the assay gave nd (0 of 6 replicates; controls 0 of 18). For HLSQSELYESRNKNSVA / NASTRLS / QQYHRLPLS, the assay gave 390 pM (6 of 6 replicates; controls 1 of 18). The variant WSSQSVLVESSNKNSVA / FASTLES / QQYHRLPLS showed 63 nM (3 of 6 replicates; controls 0 of 18).

7 of these entries, quoted again:

CDR-L1	CDR-L2	CDR-L3	Kd	replicates with signal	signal with controls
KLVQSVLYESRNKNSVA	NASTRMS	QQYHRLPLS	2.1 nM	6 of 6	1 of 18
KSSQSVLYESRNKNSVA	WASTRSS	QQYHRLPLS	33 nM	6 of 6	0 of 18
KLEQSWLYESRNKNAVA	NASQRES	QQYHRLPLS	540 pM	6 of 6	0 of 18
KWSQSHLYESRNWNAVA	EASTRPS	QQYHRLPLS	nd	0 of 6	0 of 18
KMPQSHLYESRNKNSVA	NASQRES	QQYHRLPLS	5.4 nM	6 of 6	0 of 18
KLSQSMLYESRNKNSVA	NASTRES	QSYHRLPLS	1.2 nM	6 of 6	2 of 18
KIIQSVLYESMNKNSVA	WASTRES	QQYVRLPLS	140 nM	5 of 6	1 of 18